Reference: ChEMBL document CHEMBL3352549, “Discovery, biological evaluation, and crystal structure of a novel nanomolar selective butyrylcholinesterase inhibitor” (J Med Chem, 2014)

By UniProt entry, the sequences of proteins in these tests, tags left out. Where a name states a change or a piece, a line headed by the entry shows the natural chain unless it says otherwise.
UniProt P22303: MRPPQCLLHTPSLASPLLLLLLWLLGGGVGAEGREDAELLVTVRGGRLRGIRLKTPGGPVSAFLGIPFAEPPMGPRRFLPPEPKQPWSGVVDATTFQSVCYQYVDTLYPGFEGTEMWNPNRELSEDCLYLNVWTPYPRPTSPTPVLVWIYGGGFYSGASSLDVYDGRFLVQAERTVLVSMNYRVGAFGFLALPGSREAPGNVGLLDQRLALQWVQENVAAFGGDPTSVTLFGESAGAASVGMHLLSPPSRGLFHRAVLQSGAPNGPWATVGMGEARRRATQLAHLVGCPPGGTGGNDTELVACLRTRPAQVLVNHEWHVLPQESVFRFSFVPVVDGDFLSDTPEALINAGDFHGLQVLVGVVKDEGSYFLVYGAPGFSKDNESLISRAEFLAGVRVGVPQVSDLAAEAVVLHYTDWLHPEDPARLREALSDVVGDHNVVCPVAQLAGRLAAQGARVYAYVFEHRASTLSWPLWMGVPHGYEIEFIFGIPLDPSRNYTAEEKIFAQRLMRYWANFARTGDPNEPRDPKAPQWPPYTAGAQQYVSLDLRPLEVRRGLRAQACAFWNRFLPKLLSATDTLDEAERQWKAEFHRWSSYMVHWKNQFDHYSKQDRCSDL

Molecular target: Acetylcholinesterase (Homo sapiens, UniProt P22303)

With `CC(C)c1ccc(NC(=O)Oc2ccc3c(c2)[C@]2(C)CCN(C)[C@@H]2N3C)cc1` [4-ISOPROPYLPHENSERINE] the IC50 was 750 nM.
